Measurements as given in ChEMBL document CHEMBL1641413, “Identification of 3-sulfonylindazole derivatives as potent and selective 5-HT(6) antagonists” (Bioorg Med Chem, 2011).

Amino acid sequences for entries named in this document (tags omitted).
UniProt P50406, whole entry: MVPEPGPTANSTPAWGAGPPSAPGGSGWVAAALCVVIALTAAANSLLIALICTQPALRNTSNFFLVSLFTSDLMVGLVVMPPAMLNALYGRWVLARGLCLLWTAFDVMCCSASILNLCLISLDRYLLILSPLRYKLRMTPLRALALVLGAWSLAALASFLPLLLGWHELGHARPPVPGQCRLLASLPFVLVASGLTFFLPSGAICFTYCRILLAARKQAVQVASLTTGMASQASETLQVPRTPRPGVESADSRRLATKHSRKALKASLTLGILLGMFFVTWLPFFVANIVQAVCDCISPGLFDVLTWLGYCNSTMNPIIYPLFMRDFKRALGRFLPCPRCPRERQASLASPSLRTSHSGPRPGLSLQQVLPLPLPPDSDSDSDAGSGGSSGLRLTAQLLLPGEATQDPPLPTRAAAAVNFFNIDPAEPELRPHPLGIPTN

Target: 5-hydroxytryptamine receptor 6 (Homo sapiens, UniProt P50406)
Assay: Antagonist activity at cloned human 5-HT6 receptor expressed in human HeLa cells assessed as inhibition of 5HT-induced cyclic AMP formation
Type: functional, cell-based
Outline: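 Cyclase functional assay at 5-HT6 receptor, antagonism measured against the natural agonist 5-HT; compounds tested as HCl salts; efficacy expressed as Imax, percentage of maximal antagonism relative to that obtained with SB-271047.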

- IC50: 103 nM
SMILES: CC(C)[C@H](N)CNc1ccc2[nH]nc(S(=O)(=O)c3cccc4ccccc34)c2c1
